In PubChem BioAssay AID687016 (The Scripps Research Institute Molecular Screening Center, 2013):
The list shows a part of the results, in another mix than the full data. Activity calls are given as the source filed them. Cut-off read from the data, not from the text of the source: active = inhibition above about 21%; inactive = the rest.

Chains of the proteins cited; added tags and fusions are not shown. Lines headed by an entry give the natural chain unless they say otherwise; changes in a name come on top.
UniProt Q96T88: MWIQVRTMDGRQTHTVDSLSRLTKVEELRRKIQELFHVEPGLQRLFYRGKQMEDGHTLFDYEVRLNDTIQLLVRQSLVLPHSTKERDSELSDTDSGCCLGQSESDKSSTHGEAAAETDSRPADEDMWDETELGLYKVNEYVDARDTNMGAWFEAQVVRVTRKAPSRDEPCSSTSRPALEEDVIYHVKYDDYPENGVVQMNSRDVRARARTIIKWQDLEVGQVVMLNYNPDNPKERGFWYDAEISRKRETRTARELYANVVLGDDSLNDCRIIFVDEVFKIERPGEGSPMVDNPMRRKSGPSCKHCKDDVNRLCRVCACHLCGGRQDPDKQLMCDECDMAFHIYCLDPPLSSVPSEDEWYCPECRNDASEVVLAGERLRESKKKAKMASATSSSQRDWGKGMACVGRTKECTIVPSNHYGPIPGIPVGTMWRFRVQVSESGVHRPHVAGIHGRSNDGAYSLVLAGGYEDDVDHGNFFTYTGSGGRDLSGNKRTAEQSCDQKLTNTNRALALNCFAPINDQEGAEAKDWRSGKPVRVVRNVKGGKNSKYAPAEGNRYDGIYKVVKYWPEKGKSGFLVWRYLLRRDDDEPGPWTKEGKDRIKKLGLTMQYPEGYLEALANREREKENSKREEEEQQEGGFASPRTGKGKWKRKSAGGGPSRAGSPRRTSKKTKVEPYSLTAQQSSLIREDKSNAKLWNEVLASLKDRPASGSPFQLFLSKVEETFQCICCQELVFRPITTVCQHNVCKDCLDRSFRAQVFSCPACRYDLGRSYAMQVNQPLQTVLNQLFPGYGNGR

molecular target: E3 ubiquitin-protein ligase UHRF1 (Homo sapiens) (UniProt Q96T88); assay: blockers of UHRF1 binding to methyl-oligo – biochemical, TR-FRET, human UHRF1, single concentration, counter-screen for MBD2 inhibitor project, primary screen (AID 687016); settings: UHRF1 binding to methylated oligo, at 4.4 µM, active compounds read high;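 note: UHRF1 SRA domain binding a hemimethylated CpG hairpin DNA probe; 0% = median of test compound wells and 100% = reference inhibitor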

Which inhibition does the source give for `O=C(O)C(=O)c1ccc(N(CCCl)CCCl)cc1` here?
Its inhibition is inactive: -2.08%.

For `O=C(Nc1ccncc1[N+](=O)[O-])c1ccc([N+](=O)[O-])cc1[N+](=O)[O-]`, which inhibition is on record?
Its inhibition is inactive: -0.2%.

`O=C(COc1ccccc1)OC1CN2CCC1CC2` (stereo not drawn) was tested. Which inhibition did it give?
Its inhibition is inactive: -2.84%.

Which inhibition does the source give for `O=[N+]([O-])c1cc(Oc2ccc([N+](=O)[O-])cc2C(F)(F)F)cc([N+](=O)[O-])c1` here?
The inhibition was inactive: 2.63%.

`COc1ccc(N/C(=N/P(=O)(N2CCOCC2)N2CCOCC2)N2CCOCC2)cc1` was tested. Which inhibition did it give?
Its inhibition is inactive: 8.31%.

With `Cc1c2c(nc3ccccc13)SC(C(Cl)Cl)C2` (stereo not drawn) as the molecule, how does the inhibition read?
The inhibition was inactive: -3.35%.

`Cc1cc(=O)[nH]c(N[N+](=O)[O-])n1` was tested. Which inhibition did it give?
Its inhibition is inactive: -2.04%.

How did the inhibition turn out when `O=C(OC1CN2CCC1CC2)C12CC3CC(CC(C3)C1)C2` (stereo not drawn) was run?
The inhibition was inactive: 2.48%.

For `O=P1(N(CCCl)CCCl)Nc2ccccc2N1`, which inhibition is on record?
Its inhibition is inactive: -0.54%.

How did the inhibition turn out when `O=P1(N(CCCl)CCCl)OCCCN1CCCl` (stereo not drawn) was run?
Its inhibition is inactive: 3.13%.

For `COc1cc(I)ccc1[As](=O)(O)O`, which inhibition is on record?
Its inhibition is inactive: 3.87%.

Which inhibition does the source give for `COc1ccc2nc(NP(=O)(c3ccccc3)c3ccccc3)sc2c1` here?
Its inhibition is inactive: -0.87%.

`ClCCSc1nnc(-c2cccnc2)o1` was tested. Which inhibition did it give?
The inhibition was inactive: -1.27%.

`CC(C)c1ccc(OP(=O)(Nc2ccccn2)Oc2ccccc2F)cc1` (stereo not drawn) was tested. Which inhibition did it give?
Its inhibition is inactive: 1.4%.

With `COC(=O)C1(C)COP(=O)(N2CCCCCC2)OC1` (stereo not drawn) as the molecule, how does the inhibition read?
The inhibition was inactive: 1.37%.

Which inhibition does the source give for `O=C(OC1CN2CCC1CC2)c1cccc2[nH]cnc12` (stereo not drawn) here?
Its inhibition is inactive: 3.28%.

With `CCN(CC)C(=S)SC(NC=O)C(Cl)(Cl)Cl` (stereo not drawn) as the molecule, how does the inhibition read?
Its inhibition is inactive: 4.9%.

For `CC(C)NC(=O)NP(=O)(Oc1ccccc1)Oc1ccccc1`, which inhibition is on record?
Its inhibition is inactive: 1.6%.

`COc1cc(C(=O)NCC2(N3CCOCC3)CCCCC2)ccc1OCC(C)C` was tested. Which inhibition did it give?
Its inhibition is inactive: 9.52%.

`O=[N+]([O-])c1ccc(-c2cc([N+](=O)[O-])c(O)c([N+](=O)[O-])c2)cc1` was tested. Which inhibition did it give?
Its inhibition is inactive: -8.96%.

How did the inhibition turn out when `O=[As](O)(c1ccc(O)cc1)c1ccccc1O` was run?
Its inhibition is inactive: 2.13%.

How did the inhibition turn out when `C[As](=O)(O)c1cccc(C(=O)O)c1` was run?
Its inhibition is inactive: 1.35%.

`Cc1ccc(OP(=O)(Nc2ccc([N+](=O)[O-])cn2)Oc2ccc(C)cc2)cc1` was tested. Which inhibition did it give?
The inhibition was active: 25.1%.

`[N-]=[N+]=NC1CCCCC1NC(=O)c1cc([N+](=O)[O-])cc([N+](=O)[O-])c1` (stereo not drawn) was tested. Which inhibition did it give?
The inhibition was inactive: -4.4%.

How did the inhibition turn out when `Cc1ccc2nc3c(c(C)c2c1)CC(C(Cl)Cl)S3` (stereo not drawn) was run?
The inhibition was inactive: 1.33%.

With `NC(=O)Nc1ccc([As](=O)(O)O)cc1` as the molecule, how does the inhibition read?
Its inhibition is inactive: -1.92%.

Which inhibition does the source give for `CCOP1(=S)c2c(C)nn(CCC#N)c2N=C(c2ccc(F)cc2)N1C` (stereo not drawn) here?
The inhibition was inactive: -0.82%.

For `CN(C(=O)Cc1ccccc1)[C@@H]1CC[C@]2(CCCO2)C[C@H]1N1CCCC1`, which inhibition is on record?
The inhibition was inactive: 1.17%.
